Test results: paper PMC8155022 (Scientific Reports, 2021)

Conditions: no indications of off-target effects that limit further use

SMILES: CC1CCCN1C(=O)c1nc(C(=O)NCC(C)(C)O)sc1-c1ccc(C(O)(C(F)(F)F)C(F)(F)F)c(Cl)c1Cl (stereo not shown) [JNJ-61803534]
- tolerability in safety pharmacology studies: well tolerated
